Laboratory results as given in patent publication US9512138B2, “Compositions and methods for treating cancer” (The Regents of the University of California, priority 2012, dated 2016).

Legend:
[1] = test system: SKBR3/TZR cells; assay: Proliferation of trastuzumab-resistant SKBR3/TZR cells; type: cell-based, human; conditions: media containing 100 mg/mL trastuzumab, 2-5 days
Method: Assays for Tumor Cell Proliferation. Breast tumor cells were be grown in RPMI 1640 media with 10% heat-inactivated FBS (except for TMR and TZR cells as noted above). For estrogen-free conditions, medium were changed 48 h before studies to phenol-red free RPMI 1640 with 1% dextran-coated, charcoal-treated (DCC) FBS, then treated with selected reagents. Cell counts and viability tests (Trypan blue) will be done every 24 hr for […]. After 48-72 hr, proliferation was assessed by cell counts.
Activation of NFkB in HER2-overexpressing breast tumor cells resistant to Herceptin (trastuzumab) and effects of parthenolide analogues. The human breast cancer cell line SKBR3 (ATCC) was obtained from the American Type Culture Collection (ATCC). Unless otherwise stated, monolayer cultures of SKBR3 were maintained in Dulbeccos' Modified Eagle's Media (DMEM):F12 medium with 10% FBS. The cell lines overexpressed the HER2 gene product. Trastuzumab-resistant clones SKBR3/TZR were generated from SKBR3 cells as detailed previously (65). In brief, to select trastuzumab-resistant clones, SKBR3 cells were plated in 24-well plates at low density and maintained in growth medium containing 10, 50, and 100 mg/mL of trastuzumab. SKBR3/TZR cells were maintained in growth medium containing 100 mg/mL of trastuzumab. SKBR3/TZR cells were repeatedly confirmed as insensitive to trastuzumab. […]

[2] = test system: SKBR3 parental (control) cells; assay: Proliferation and HER2 overexpression of SKBR3 parental cells; type: cell-based, human
Source text: Activation of NFkB in HER2-overexpressing breast tumor cells resistant to Herceptin (trastuzumab) and effects of parthenolide analogues. The human breast cancer cell line SKBR3 (ATCC) was obtained from the American Type Culture Collection (ATCC). Unless otherwise stated, monolayer cultures of SKBR3 were maintained in Dulbeccos' Modified Eagle's Media (DMEM):F12 medium with 10% FBS. The cell lines overexpressed the HER2 gene product. Trastuzumab-resistant clones SKBR3/TZR were generated from SKBR3 cells as detailed previously (65). In brief, to select trastuzumab-resistant clones, SKBR3 cells were plated in 24-well plates at low density and maintained in growth medium containing 10, 50, and 100 mg/mL of trastuzumab. SKBR3/TZR cells were maintained in growth medium containing 100 mg/mL of trastuzumab. SKBR3/TZR cells were repeatedly confirmed as insensitive to trastuzumab. […] The number of cells overexpressing HER2 receptors was reduced in SKBR3 cells on treatment with trastuzumab (10 mg/mL) for 72 hrs.

**Q.** Which results are given for “trastuzumab: Herceptin (trastuzumab), therapy for HER2+ breast tumors”?
**A.** growth of SKBR3/TZR cells with trastuzumab [1]: not inhibited; number of cells overexpressing HER2 receptors ([2]; 10 mg/mL for 72 hrs): reduced; growth of SKBR3 parental cells with trastuzumab ([2]; fresh treatment with 10 and 100 mg/mL): significantly inhibited
